Measured values reported in PMC9370560, “5-Demethoxy-10′-ethoxyexotimarin F, a New Coumarin with MAO-B Inhibitory Potential from Murraya exotica L” (Molecules, 2022).

Sequences of proteins named here, by UniProt entry; tags and fusion partners are left off.
UniProt P21397, whole entry: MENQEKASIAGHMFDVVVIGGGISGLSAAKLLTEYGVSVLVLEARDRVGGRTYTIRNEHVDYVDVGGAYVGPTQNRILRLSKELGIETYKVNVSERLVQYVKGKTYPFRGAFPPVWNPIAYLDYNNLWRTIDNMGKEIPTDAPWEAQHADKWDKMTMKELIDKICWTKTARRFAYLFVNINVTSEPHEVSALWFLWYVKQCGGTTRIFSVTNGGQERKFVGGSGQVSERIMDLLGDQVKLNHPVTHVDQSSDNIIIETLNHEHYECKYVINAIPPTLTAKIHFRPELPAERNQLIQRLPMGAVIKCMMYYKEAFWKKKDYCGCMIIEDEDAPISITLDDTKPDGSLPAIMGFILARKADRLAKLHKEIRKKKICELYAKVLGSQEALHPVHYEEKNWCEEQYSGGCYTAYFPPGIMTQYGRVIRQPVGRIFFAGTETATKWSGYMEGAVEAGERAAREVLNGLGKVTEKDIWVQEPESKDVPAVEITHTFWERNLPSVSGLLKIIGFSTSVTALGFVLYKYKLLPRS

Biological target: MAO-A (Homo sapiens, UniProt P21397)
Format: biochemical

In the case of `CC(C)NNC(=O)c1ccncc1` [iproniazide, reference compound], the IC50 is reported as 6.55 ± 0.75 µM.
